{"sequences": {"note": "Amino acid sequences for entries named in this document (tags omitted). Residues count along the entry.", "UniProt O14786, 22-923": "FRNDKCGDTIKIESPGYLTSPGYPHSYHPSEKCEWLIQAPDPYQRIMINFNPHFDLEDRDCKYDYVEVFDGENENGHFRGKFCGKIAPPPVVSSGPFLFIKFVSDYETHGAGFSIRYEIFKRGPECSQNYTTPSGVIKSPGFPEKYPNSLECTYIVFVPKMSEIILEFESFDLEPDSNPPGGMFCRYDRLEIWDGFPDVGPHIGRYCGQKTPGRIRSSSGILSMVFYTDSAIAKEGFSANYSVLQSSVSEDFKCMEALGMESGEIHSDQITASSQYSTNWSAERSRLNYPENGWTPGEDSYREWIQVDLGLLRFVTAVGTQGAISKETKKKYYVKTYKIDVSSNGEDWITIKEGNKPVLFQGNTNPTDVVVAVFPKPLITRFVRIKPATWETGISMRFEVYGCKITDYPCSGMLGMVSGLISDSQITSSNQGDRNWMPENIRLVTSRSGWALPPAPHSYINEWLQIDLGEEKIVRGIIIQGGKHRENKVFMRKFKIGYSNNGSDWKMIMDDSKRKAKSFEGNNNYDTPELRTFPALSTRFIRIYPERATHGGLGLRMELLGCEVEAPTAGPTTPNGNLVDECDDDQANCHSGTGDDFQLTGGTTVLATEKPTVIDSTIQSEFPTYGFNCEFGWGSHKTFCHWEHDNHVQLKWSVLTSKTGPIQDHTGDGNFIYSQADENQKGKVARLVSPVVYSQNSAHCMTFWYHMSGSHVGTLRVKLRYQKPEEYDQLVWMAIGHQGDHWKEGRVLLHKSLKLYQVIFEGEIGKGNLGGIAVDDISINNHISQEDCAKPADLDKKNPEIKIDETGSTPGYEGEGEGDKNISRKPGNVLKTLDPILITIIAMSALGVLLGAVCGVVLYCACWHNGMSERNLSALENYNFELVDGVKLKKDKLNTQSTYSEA", "UniProt P35968, 20-1356": "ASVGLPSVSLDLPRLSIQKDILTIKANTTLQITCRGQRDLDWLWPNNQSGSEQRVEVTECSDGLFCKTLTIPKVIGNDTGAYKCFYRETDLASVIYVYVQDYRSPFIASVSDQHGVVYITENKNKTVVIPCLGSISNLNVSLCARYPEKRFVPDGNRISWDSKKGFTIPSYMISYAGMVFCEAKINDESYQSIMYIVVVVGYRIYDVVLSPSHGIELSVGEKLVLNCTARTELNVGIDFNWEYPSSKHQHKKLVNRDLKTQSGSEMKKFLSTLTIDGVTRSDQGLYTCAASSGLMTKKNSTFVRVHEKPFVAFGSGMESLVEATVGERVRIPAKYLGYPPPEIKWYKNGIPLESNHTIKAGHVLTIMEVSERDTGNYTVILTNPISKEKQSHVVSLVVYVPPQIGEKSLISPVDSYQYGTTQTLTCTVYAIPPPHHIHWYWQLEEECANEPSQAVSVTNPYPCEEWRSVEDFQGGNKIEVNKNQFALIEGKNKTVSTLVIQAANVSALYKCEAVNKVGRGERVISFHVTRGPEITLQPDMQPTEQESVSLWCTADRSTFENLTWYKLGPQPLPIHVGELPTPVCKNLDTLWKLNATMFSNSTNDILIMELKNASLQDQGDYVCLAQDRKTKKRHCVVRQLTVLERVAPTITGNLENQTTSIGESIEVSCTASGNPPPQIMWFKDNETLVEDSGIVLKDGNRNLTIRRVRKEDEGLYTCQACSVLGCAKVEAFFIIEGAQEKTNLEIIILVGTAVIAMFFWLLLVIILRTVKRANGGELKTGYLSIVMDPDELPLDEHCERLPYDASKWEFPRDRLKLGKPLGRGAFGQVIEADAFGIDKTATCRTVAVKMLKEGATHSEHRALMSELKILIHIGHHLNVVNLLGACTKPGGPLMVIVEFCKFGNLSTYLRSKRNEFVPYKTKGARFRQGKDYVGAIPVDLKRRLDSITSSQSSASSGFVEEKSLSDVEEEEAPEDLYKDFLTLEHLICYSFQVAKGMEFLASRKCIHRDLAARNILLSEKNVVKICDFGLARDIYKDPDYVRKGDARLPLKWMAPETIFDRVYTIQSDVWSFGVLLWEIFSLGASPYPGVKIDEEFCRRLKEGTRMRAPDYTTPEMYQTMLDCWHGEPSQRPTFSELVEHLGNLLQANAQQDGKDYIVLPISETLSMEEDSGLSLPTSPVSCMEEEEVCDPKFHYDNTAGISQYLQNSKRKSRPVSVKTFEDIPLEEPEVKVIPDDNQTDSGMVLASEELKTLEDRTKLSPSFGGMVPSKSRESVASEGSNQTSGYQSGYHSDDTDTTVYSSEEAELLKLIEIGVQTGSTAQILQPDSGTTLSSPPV"}, "source": "patent US7052705B2", "about": "“Anti-angiogenic peptides” (Regeneron Pharmaceuticals, Inc., priority 2001, dated 2006)", "key": {"NP-1": {"target": "NP-1 (Homo sapiens, UniProt O14786)", "format": "binding", "design": "the NP-1 cDNA used for these experiments would only produce the full-length receptor; expressed in transfected cells; host or cells: COS-1", "method": "(§1) When co-expressing VEGFR-2 and NP-1, 5 μg of VEGFR-2 cDNA and 2 μg of NP-1 cDNA are used. When the receptors are expressed in isolation, for VEGFR-2, 5 μg of VEGFR-2 cDNA and 2 μg of mock vector cDNA are used.\n(§2) After generation of the liposome/DNA solution, the cells are rinsed one time with 5 ml Optimem I, then replaced with another 5 ml of Optimem I containing the liposome/DNA solution. The cells are incubated for two to four hours at 37° C., 5% CO2, then 5 ml of COS-1 cell growth medium is applied and the transfection is allowed to proceed overnight. The following day, cells are trypsinized (0.2% trypsin, 1 mM EDTA, Gibco-BRL), and cells containing common transfectants are pooled. […] The cells are then used for corresponding VEGFR-2/NP-1 complex formation and peptide blocking studies.\n(§3) Cells are plated the day before experimentation at 200,000 cells per well in twelve well tissue culture plates (VWR) in 1 ml of growth medium specific for each cell type. […]\n(§4) Unbound ligand is then removed by quickly washing three times with 5 ml ice cold BSA-free binding buffer (MEM, Gibco, 25 mM Hepes, Gibco). Cells are lysed by the addition of 250 μl of RIPS Buffer (previously described), and the lysed cells are transferred to 12×75 mm test tubes and counted using a gamma counter. […]"}, "VEGFR-2/NP-1": {"system": "T1, VEGFR-2/NP-1", "T1 construct": "In the COS-1 cells overexpressing the full-length VEGFR-2; the NP-1 cDNA used for these experiments would only produce the full-length receptor; expressed in transfected cells; host or cells: COS-1", "format": "binding, human", "method": "as §1, §2, §3, §4"}, "VEGFR-2": {"target": "T2, VEGFR-2 (Homo sapiens, UniProt P35968)", "T2 construct": "In the COS-1 cells overexpressing the full-length VEGFR-2; expressed in transfected cells; host or cells: COS-1", "format": "binding", "method": "as §1, §2, §3, §4"}}, "data": [{"substance": "H-RRPKGRAAARREKQRPSDKPRR-OH [AS-2, RRP KGR AM RRE KQR PSD KPR R]", "values": [{"measurement": "Relative Affinity to Lead Peptide (RALP), NP-1", "setting": "NP-1", "value": 28}, {"measurement": "Relative Affinity to Lead Peptide (RALP), VEGFR-2/NP-1", "setting": "VEGFR-2/NP-1", "value": 9}, {"measurement": "Relative Affinity to Lead Peptide (RALP), VEGFR-2", "setting": "VEGFR-2", "value": 10}]}]}
